This is an account of results in patent US10111937B2, “Method of reducing accumulation of intracellular tingible body macrophages” (THE REGENTS OF THE UNIVERSITY OF MICHIGAN, priority 2008, dated 2018).

The experiment has as its target T1, recombinant mouse LPLA2 (Mus musculus, UniProt Q8VEB4).
T1 sequence (Q8VEB4 34-412): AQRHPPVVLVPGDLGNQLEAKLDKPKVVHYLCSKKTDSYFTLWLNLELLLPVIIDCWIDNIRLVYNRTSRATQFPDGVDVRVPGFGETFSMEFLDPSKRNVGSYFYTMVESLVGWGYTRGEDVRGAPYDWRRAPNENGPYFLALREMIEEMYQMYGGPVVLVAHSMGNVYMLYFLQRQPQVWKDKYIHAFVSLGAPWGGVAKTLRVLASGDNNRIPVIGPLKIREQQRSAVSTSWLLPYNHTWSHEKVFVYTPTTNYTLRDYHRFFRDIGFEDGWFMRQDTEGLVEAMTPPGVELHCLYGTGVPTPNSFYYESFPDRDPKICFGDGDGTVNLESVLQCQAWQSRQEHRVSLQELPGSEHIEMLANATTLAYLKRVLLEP
Description: 1-O-acylceramide synthase (transacylase) activity of recombinant LPLA2 on liposomes, 1-O-oleoyl-NAS by HPTLC. Format: biochemical. The note with it: DOPC/sulfatide/NAS liposomes pre-incubated with drug 5 min at 37° C., pH 4.5; FIG. 12C. How it is done:
To address this possibility, the 1-O-acylceramide synthase activity of LPLA2 was studied in liposomes in which the anionic lipid content was varied by the addition of sulfatide, a negatively charged, sulfate containing glycolipid that is not a substrate for LPLA2. Di-octanoyl-PC (DOPC) was used as the liposomal substrate. The reaction mixture contained 48 mM sodium citrate (pH 4.5), 10 μg/ml BSA, liposomes (127 μM phospholipid) and 14.5 ng/ml of recombinant mouse LPLA2 in 500 μl of total volume. Liposomes consisting of DOPC/NAS (3:1, molar ratio) or DOP/sulfatide/NAS (3:0.3:1, molar ratio) were incubated with the enzyme for 5, 10, 15, 30 and 45 min at 37° C. The reaction products were extracted and separated by an HPTLC plate using a solvent system consisting of chloroform/acetic acid (9:1, v/v). The reaction product, 1-O-oleoyl-NAS, quantified by scanning the plate, was plotted against time (FIG. 11A). […]
The reaction mixture contained 0-500 mM NaCl, 48 mM sodium citrate (pH 4.5), 10 μg/ml BSA, liposomes (127 μM phospholipid) and either 14.5 ng/ml of recombinant mouse LPLA2 (+) or 7.8 μg protein/ml of the soluble fraction obtained from MDCK cells transfected with mouse LPLA2 (+) in 500 μl of total volume. […] One of the products, 1-O-oleoyl-NAS, quantified by scanning the plate, was plotted against NaCl concentration (FIG. 12A). […]

Turning to `CCCCc1oc2ccccc2c1C(=O)c1cc(I)c(OCCN(CC)CC)c(I)c1` [amiodarone], the “LPLA2 enzyme activity (1-O-oleoyl-NAS formation) with increasing drug concentration” value is “inhibited the enzyme activity”.
